# Measured affinities in a library of Ab-14 heavy chain variants

The target is the same throughout: PDVDLGDISGINAS, from the HR2 region of SARS-CoV-2 spike.

Parent scFv Ab-14: VH joined to VL by a 15-residue (Gly4Ser)3 linker. Changes lie in the heavy chain CDRs alone.
VH: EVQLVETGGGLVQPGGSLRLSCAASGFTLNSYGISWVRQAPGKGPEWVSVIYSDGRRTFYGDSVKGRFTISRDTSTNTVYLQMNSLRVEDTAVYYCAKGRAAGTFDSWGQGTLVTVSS
VL: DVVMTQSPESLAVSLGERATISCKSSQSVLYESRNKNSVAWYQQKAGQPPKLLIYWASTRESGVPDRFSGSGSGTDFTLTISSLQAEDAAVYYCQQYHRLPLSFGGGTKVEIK

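These sequences belong to a second round, designed from the earlier measurements on random variants of the parent. Group labels follow the data file (Ctrl: baseline library sampled from a position-specific scoring matrix, with some repeated check sequences; Rand: our label for a block that the file lists under HC and that is probably the random mutants of the ten best first-round binders; En: ensemble of fine-tuned language models; GP: Gaussian process model; GPLM: also part of the Gaussian process libraries; HC: hill climbing; Gen: genetic algorithm; Gibbs: Gibbs sampling; a sequence that several methods proposed may carry one label only). Affinity was read by AlphaSeq, a pooled yeast mating assay with surface-displayed partners. After mating in shaken culture at 30 °C for 16 h, diploids were selected and their barcode pairs sequenced. Scores were corrected for input abundance and mapped to Kd with protein pairs of known affinity run in the same pool. Mating was done six times.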

The parent's heavy chain CDRs are GFTLNSYGIS, VIYSDGRRTFYGDSVK, GRAAGTFDS; each variant's own CDRs replace them letter for letter.
Numbers give log10(Kd / nM), so 0 is 1 nM and 3 is 1 µM. Smaller is tighter.
Averages over replicates are reported, and they cover detected replicates only.
An entry "nd" has no value in the source: the pair was not observed among the diploids in any replicate. This suggests poor binding but is not conclusive.
In the paper, a design with two or fewer of six values counts as a poor binder.

With GFSLNSYGIS | VIYSDGRRTFYQDSVK | GRAAGTFDS [Ctrl+GPLM_Gen] the result was 0.16 (8 of 12 replicates; controls 1 of 36).
With GFSLNNYGIS | VIYSDGRRTFYIDSVK | GQAAGTFDS [GPLM_Gen] the result was 0.90 (6 of 6 replicates; controls 0 of 18).
With GFTLNDYGIS | VIYSDGRRTFYIDEVK | GNAAGTFDS [GPLM_HC] the result was -0.05 (6 of 6 replicates; controls 3 of 18).
With GDSLDEYGIS | VIYADGQRSYYANSVK | GEHDGLFSQ [En_Gibbs] the result was nd (0 of 6 replicates; controls 0 of 18).
With GFTLDSYGIS | VIYSDGRRTFYADSVK | GRAAGTFDS [Ctrl+GPLM_Gen] the result was 0.30 (10 of 12 replicates; controls 0 of 36).
With GFSLNSYGIS | VIYSDGYRTFYGDSVK | GREAGTFDS [Ctrl] the result was 0.57 (6 of 6 replicates; controls 1 of 18).
With GFNLDEYGIS | VIYSDGRRTFYGDSVK | GTAAGLFDS [Ctrl] the result was nd (0 of 6 replicates; controls 0 of 18).
With GFDLNSYGIS | VIYSDGRRTFYADEVK | GNAAGTFDS [GP_Gen] the result was -0.17 (3 of 6 replicates; controls 0 of 18).
With GFTLNSYGIS | VIYSDGRRTFYGDSVK | GREADTFDS [Ctrl] the result was 1.75 (4 of 6 replicates; controls 1 of 18).
With GFNLNSYGIS | VIYSDGRRTFYADSVK | GNEAGTFDS [GPLM_Gibbs] the result was -0.06 (6 of 6 replicates; controls 0 of 18).
With GFDLNEYGIS | VIYADGMRTSYADSVK | GTNAGTFDI [En_Gen] the result was -0.23 (6 of 6 replicates; controls 0 of 18).
With GFDLNEMGIS | VIYADGDRKKYQDAVK | GDVSGDFDE [En_Gibbs] the result was nd (0 of 6 replicates; controls 0 of 18).
With GFTLNSYGIS | VIYSDGRRTFYQDSFK | GRAAGTFDS [Ctrl] the result was nd (0 of 6 replicates; controls 0 of 18).
With GFTLNEYGIS | VIYSDGRRTMYGDSVK | GRVAGTFDS [GP_HC] the result was 1.90 (1 of 6 replicates; controls 0 of 18).
With GFDLNSYGIS | VIYSDGRRTFYSDSVK | GKAAGTFDS [GPLM_Gen] the result was 0.79 (6 of 6 replicates; controls 0 of 18).
With GFTLDSYGIS | VIYSDGRRTFYIDSVK | GRAAGTFDS [GPLM_Gen] the result was 1.67 (2 of 6 replicates; controls 0 of 18).
With GFQLNSYGIS | VIYSDGRRTFYGDQVK | GQTAGTFDS [GP_Gen] the result was 1.16 (2 of 6 replicates; controls 0 of 18).
With GFWLNEYGIS | VIYSDGRRTYYGDSVK | GRTAGTFDS [GP_Gibbs] the result was 0.90 (6 of 6 replicates; controls 0 of 18).
With GFTLNSYGIS | VIYSDGERTFYGDSVK | GRAAGTFDY [Ctrl] the result was 0.54 (1 of 6 replicates; controls 0 of 18).
With GFQPNSYGIS | VIYSDGRRTAYGDSVK | GRAAGTFDS [Ctrl] the result was 3.48 (1 of 6 replicates; controls 0 of 18).
With GFDLNEYGIS | VIYADGMRKYYADSVK | GQNAGTFDV [En_Gen] the result was -0.62 (6 of 6 replicates; controls 3 of 18).
With GFDLDEYGIS | VIYADGMRTAYADDVK | GSNAGTFDV [En_Gen] the result was -0.30 (6 of 6 replicates; controls 0 of 18).

The remaining entries, values ahead:

nd (0 of 6 replicates; controls 0 of 18) for GFDLNSYGIS | VIYSDGRRTFYGDSHK | GRAAGWFGS [Rand].
-0.97 (6 of 6 replicates; controls 0 of 18) for GFDLNEYGIS | VIYADGRRTAYVDSVK | GNNAGTFDV [En_Gen].
nd (0 of 6 replicates; controls 0 of 18) for GMDLQEFGIS | VIYADGVREYYTDDFK | GQIAGTIDL [En_Gibbs].
-0.94 (6 of 6 replicates; controls 0 of 18) for GFDLNEYGIS | VIYADGMRTFYADNVK | GNVAGTFDV [En_Gen].
nd (0 of 6 replicates; controls 0 of 18) for GFTINSYGIS | VIYSDGRRTFYSDSVK | GDAAGLFDS [Ctrl].
0.74 (6 of 6 replicates; controls 0 of 18) for GFQLNEYGIS | VIYSDGRRTFYGDSVK | GQAAGTFDT [GP_Gen].
0.08 (6 of 6 replicates; controls 0 of 18) for GFSLNEYGIS | VIYSDGRRTFYGDSVK | GKIAGTFDS [GPLM_Gen].
-0.64 (6 of 6 replicates; controls 0 of 18) for GFDLNEYGIS | VIYADGVRTAYADSVK | GNHAGTFDL [En_Gen].
-0.16 (6 of 6 replicates; controls 1 of 18) for GFSLNEYGIS | VIYSDGRRTMYMDSVK | GRTAGTFDS [GP_Gibbs].
2.17 (1 of 6 replicates; controls 1 of 18) for GFDFQEYGIS | VIYADGLRTAYANSVK | GQSNALTTV [En_Gibbs].
-0.05 (6 of 6 replicates; controls 0 of 18) for GFTLNSYGIS | VIYADGRRTFYGDSVK | GDAAGTNYS [Rand].
1.61 (6 of 6 replicates; controls 0 of 18) for GFTLNSYGIS | VIYSDGRRTFYGDSVK | GKTAGTFDS [GPLM_Gen].
-0.21 (6 of 6 replicates; controls 0 of 18) for GFDLNEYGIS | VIYADGSRTAYADDVK | GEVAGTFDV [En_Gen].
1.67 (4 of 6 replicates; controls 0 of 18) for SFDLNSYGIS | VIYSDGRRTFYGDSVK | GRQAGTFDS [GP_Gen].
nd (0 of 6 replicates; controls 0 of 18) for GFQLDEFGIS | VIYADGKRSSYVDDVK | GETTGAFSV [En_Gibbs].
2.01 (1 of 6 replicates; controls 0 of 18) for GFDISEYGIS | VIYADGMRSALINSVK | GTLSGTFIA [En_Gibbs].
nd (0 of 6 replicates; controls 1 of 18) for GFNLNSYGIS | VIYSDGRRTFYKDQVK | GRTAGTFDS [GP_Gibbs].
1.13 (6 of 6 replicates; controls 0 of 18) for GFNLNSYGIS | VIYSDGRRTFYLDQVK | GNTAGTFDS [GP_Gibbs].
nd (0 of 6 replicates; controls 0 of 18) for GFTLNSYGIS | VIYSDGERTEYGDSVK | GRAAGTAVS [Ctrl].
2.34 (4 of 6 replicates; controls 1 of 18) for GFQLNDYGIS | VIYSDGRRTFYIDNVK | GKAAGTFDS [GP_HC].
2.37 (1 of 6 replicates; controls 0 of 18) for GFTLNSYGIS | VIYSDGERTFYRDSVK | GRAAGVFDS [Ctrl].
0.20 (1 of 6 replicates; controls 0 of 18) for GFGLNEYGIS | VIYSDGRRTFYSDSVK | GKAAGTFDS [GPLM_Gen].
0.57 (6 of 6 replicates; controls 0 of 18) for GFSLNSYGIS | VIYSDGRRTFYADHVK | GEAAGTFDK [GP_Gibbs].

A sequence measured in both rounds can read differently, since the two assays cover different ranges.
Empty control strains, which show no peptide, gave a signal in 1% of pairings with all heavy chain designs; the median was 2.08 and 95% of these signals were weaker than 0.84. No background was subtracted. Also given: how often the same scFv was detected with the empty control strains.
Of ten entries with the parent sequence, four were seen in most replicates (averages 0.34 to 2.37), three in one and three in none, so single entries are noisy.
A sequence that the file lists under several names has all its replicates pooled.

Source: Li et al. 2023 (doi:10.1038/s41467-023-39022-2), MIT Lincoln Laboratory and A-Alpha Bio; data file from the FLAb repository.